## Measured affinities in a library of Ab-14 light chain variants

Source: Li et al. 2023 (doi:10.1038/s41467-023-39022-2), MIT Lincoln Laboratory and A-Alpha Bio; data file from the FLAb repository.

Target: peptide PDVDLGDISGINAS, taken from heptad repeat 2 (HR2) of SARS-CoV-2 spike.

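The parent was found by panning a naive human phage display library on the peptide. These sequences belong to a second round, designed from the earlier measurements on random variants of the parent. Their group label is 14L_En_Gibbs (En: ensemble of fine-tuned language models; Gibbs: Gibbs sampling). The scFvs were displayed on barcoded MATa yeast, the peptide on MATalpha yeast. The frequency of each diploid, read from paired DNA barcodes, reflects how well the two displayed proteins bind. Read counts were normalised to the haploid input and turned into Kd by a linear fit to BCL2-family pairs of known affinity, for each replicate. There are six technical replicates.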

Each scFv is VH, three GGGGS repeats, VL, as in the parent Ab-14, and differs from it in the CDRs of the light chain only.
VH: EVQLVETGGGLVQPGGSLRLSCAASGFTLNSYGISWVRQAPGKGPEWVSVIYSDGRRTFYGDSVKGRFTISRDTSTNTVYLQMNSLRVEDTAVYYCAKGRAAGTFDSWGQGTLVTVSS
VL: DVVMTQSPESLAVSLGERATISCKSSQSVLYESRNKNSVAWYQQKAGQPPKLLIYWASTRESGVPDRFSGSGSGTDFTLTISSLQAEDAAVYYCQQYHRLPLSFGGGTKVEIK

Variants are written as CDR1, CDR2 and CDR3 of the light chain (limits as in the source). Parent: KSSQSVLYESRNKNSVA, WASTRES, QQYHRLPLS.
Numbers give log10(Kd / nM), so 0 is 1 nM and 3 is 1 µM. Smaller is tighter.
"ND" means that the variant was in the library but no mating with the target was seen in that replicate; the authors take this as a sign of poor binding, and no number exists.
As a blank, each scFv also met three strains without target: over all light chain designs, 4% of these pairings were detected, typically at 2.64 and seldom below 1.59. For each scFv, signals with the empty controls are counted beside the result.
The authors averaged sequences with at least three values out of six and counted those with two or fewer as poor binders.
Of ten entries with the parent sequence, four were seen in most replicates (averages 0.34 to 2.37), three in one and three in none, so single entries are noisy.
The range of this assay differs from that of the first round, and the authors advise against merging the two.

The variant SFSQHTMEEMSSNKAVA | EVTTTMN | QQYAQLPFI gave ND, 0.56, ND, ND, 1.26, 1.46 (controls 0 of 18).
The variant HMRMDCYGYQNYGKAIA | HGNMRHN | QQYSRLPFS gave 2.47, 1.79, 2.17, 2.04, ND, 1.73 (controls 1 of 18).
The variant ALTNEPESVDHHMNNIA | STSKRCM | QQYARLPLS gave 0.65, 1.00, 0.88, 0.62, 0.80, 0.71 (controls 1 of 18).
The variant SVAMLLDQQYAKGANIA | EAAELVV | QQYYRLPLT gave 0.86, 1.23, 1.03, 0.35, 0.75, 0.88 (controls 1 of 18).
The variant ALTAHRLVAIEQKNSIA | NAVMRYD | QQYAQLPLM gave 1.53, 0.84, 0.90, 0.67, 1.02, 1.23 (controls 0 of 18).
The variant QIDSFYQHGDDQNQAMA | DVTMRDQ | QQYSRLPLS gave 0.46, 1.02, 0.79, 0.76, 0.81, 0.98 (controls 2 of 18).
The variant KLEMDTLGQKPKQNNIA | NARVSWE | QQYYMLPLS gave 0.70, 0.25, 0.97, 0.60, 1.57, 1.36 (controls 1 of 18).
The variant QLAVERGQEYKAGAAIA | GNTEKLH | QQYAMLPLS gave 1.39, 1.71, 1.48, 1.14, 1.73, 1.27 (controls 0 of 18).
The variant KITHQMRTGMMQRSAMA | NGAMRVE | QFYSRLPLF gave ND, ND, ND, 3.50, ND, 3.11 (controls 2 of 18).
The variant RFDQTEQEGIQDYNSVA | NGSQSGT | QHYSRLPIS gave 2.36, 1.76, 1.36, 1.35, 1.15, 3.13 (controls 2 of 18).
The variant QLQIHDNGYIGMRNNVA | DGGMVRM | QQYARLPLM gave 0.58, 0.23, 0.14, 0.34, 0.14, 0.38 (controls 0 of 18).
The variant KLDSAEQHGTMQNSAMA | SASVSTQ | QQYSRLPLS gave 0.38, 0.05, 0.22, 0.04, 0.18, 0.33 (controls 3 of 18).
The variant HFDDLDVEWQANQSQVA | DHNEAQH | QQYARLPLS gave 2.39, 1.55, 3.27, 2.46, 2.52, 1.95 (controls 0 of 18).
The variant TLSGHQYNNSQKKNSIA | EDNNIRL | QQYHRLPFM gave ND, ND, ND, ND, ND, ND (controls 0 of 18).
The variant KIELGLTRYNNGYSAIA | NETQKAN | QQYSRLPLV gave 0.80, 0.62, 0.24, 0.46, 0.53, 0.74 (controls 0 of 18).
The variant MLSQTKDYNYTAGNSVA | EVTEKCN | QQYKRLPLS gave 1.63, 1.72, ND, 1.89, ND, 1.58 (controls 0 of 18).
The variant KIYQLGLGSQKIMRNIA | ETSTRCL | QSYNRLPLS gave 2.42, 2.23, 3.14, 3.20, ND, 2.54 (controls 1 of 18).
The variant KFSAMLYHDNSEASHVA | EGLEVRE | QQYNRLPLG gave 1.74, 1.51, 2.01, 2.73, 1.56, 1.89 (controls 0 of 18).
The variant HLSLRLSYGNMLQKAVA | EVQARMT | QQYARLPLL gave 0.86, 0.93, 1.06, 0.49, 0.93, 0.99 (controls 1 of 18).
The variant SMFEKEYAELQNENNIA | DTTARMV | QQYFRLPLL gave -0.23, -0.17, 0.04, -0.17, -0.08, -0.20 (controls 0 of 18).
The variant KLDLENGHENKKGQNIA | EASTAGD | QSYWRLPLY gave 0.66, 0.83, 1.30, 1.95, 1.19, 1.59 (controls 1 of 18).
The variant FLTYAQDQTGLQGNAIA | QVNLKEN | QQYMRLPLA gave ND, ND, 2.38, ND, ND, ND (controls 0 of 18).
The variant KITSHEREGTADNYAMA | NADVSHD | QQYSRLPLF gave 1.39, 1.03, 0.97, 0.85, 1.23, 1.41 (controls 2 of 18).
The variant ALRGVGYDEQVKHYAIA | DGEHLNN | QQYSMLPLS gave 1.05, 0.46, 0.35, 0.43, 1.32, 0.77 (controls 0 of 18).
The variant NLPMKELGMSWNVNNVA | DSEQRMK | QQYSRLPLM gave 0.11, 0.40, 0.36, 0.34, 0.03, 0.37 (controls 0 of 18).
The variant RMNKFMSEITEARNSIA | GAEHLAQ | QHYHRLPLS gave 1.71, 1.25, 1.78, 1.04, 1.85, 1.81 (controls 0 of 18).
The variant MITEGQLGENKNSSNIA | SQNIKTD | QQYQRLPLV gave 1.11, 0.89, 1.23, 1.80, 1.41, 0.67 (controls 1 of 18).
The variant KIEESTKGDRYFQYSIA | QGDIREK | QQYGQLPLT gave 2.05, 2.65, ND, 2.17, 0.99, ND (controls 1 of 18).
The variant KLSWTCTGDLNQMHSVA | ESTVAVD | QQYAHLPLS gave 0.92, 0.66, 0.60, 0.55, 0.65, 0.80 (controls 3 of 18).
The variant KLSWDDMSHFNTRSAVA | DMTMRVH | QQYNRLPLD gave 0.83, 1.00, 0.43, 0.84, 1.26, 0.99 (controls 0 of 18).
The variant KIDQQTSYDNGRERAIA | DVTIRFW | QQYARLPLL gave 1.69, 1.89, 2.47, 0.81, 1.48, 2.22 (controls 1 of 18).
The variant SMMFDTSDNYHERNNVA | DQAAIMA | QQYSILPLS gave 1.59, 1.72, ND, 0.85, 0.78, ND (controls 0 of 18).
The variant SVPSEMNQQQTQVNAVA | GEQHTAR | QQYGRLPLS gave 1.37, 1.53, 1.24, 3.28, 2.03, 1.71 (controls 2 of 18).
The variant HINEVDPGVKNKYNNIA | DISELAI | QQYFQLPLS gave 0.32, 0.57, 0.27, 0.39, 0.25, 0.51 (controls 1 of 18).
The variant HVMHEQLDYKNRENNIA | HESMRLV | QQYSQLPIT gave 2.15, 1.00, 0.85, 1.34, 0.56, 1.27 (controls 1 of 18).
The variant NLPMKELGMSWNANNVA | DSENRMK | QQYSRLPLM gave 2.69, 2.96, ND, 3.20, ND, 2.70 (controls 4 of 18).
The variant SLDMREPPYTALSGSVA | GSANRAI | QQYFRLPLS gave 0.28, -0.06, -0.05, -0.02, -0.03, 0.14 (controls 0 of 18).
The variant QFHSTMAGDQRNDHSIA | NATWAVP | QQYFRLPLS gave 0.57, 0.70, 0.48, 0.32, 0.48, 0.75 (controls 0 of 18).
The variant QMFFQLFEQGNRSNPIA | HESMRET | QQYASLPLT gave ND, ND, ND, ND, ND, ND (controls 0 of 18).
The variant KISINQMNYNGMRSAIA | NTNQARM | QQYFHLPLM gave 0.75, 0.65, 0.87, 0.48, 0.61, 0.57 (controls 3 of 18).
The variant IIAEQIMHVGIGANAIA | NATVRSA | QQYLRLPLM gave 0.68, 0.64, 0.44, 0.47, 0.32, 0.41 (controls 0 of 18).
The variant NVGNEDPGQWYMHDSIA | GSSLRAE | QQYWRLPLL gave ND, 0.55, 1.28, 0.54, 0.68, 0.46 (controls 0 of 18).
The variant HLSINLPGQHYMGDSVA | HSERRAE | QQYARLPLG gave -0.30, -0.32, -0.51, -0.50, -0.38, -0.14 (controls 0 of 18).
The variant QIAETFMQVGIHANNIA | NATVRPA | QQYLRLPLM gave 1.10, 0.69, 0.83, 0.71, 0.66, 0.79 (controls 0 of 18).
The variant NMNVGANFGKEQEQAIA | DVDDRES | QQYQRLPLT gave 0.14, 0.18, -0.01, 0.30, 0.45, 0.39 (controls 3 of 18).
The variant KFKAMLNMWARDIHNVA | HADERNV | QQYSRLPLG gave 0.74, 1.11, 0.59, 1.05, 0.33, 0.93 (controls 0 of 18).
The variant QVQAFNEHLKDQTQAMA | EATMRDQ | QQYERLPLS gave 0.98, 0.93, 0.56, 0.35, 0.31, 1.04 (controls 1 of 18).
The variant KLSMETYGLTGHMSSIA | HQEIRWA | QQYHKLPLI gave ND, ND, ND, 3.12, ND, 1.85 (controls 0 of 18).
The variant RFTEHLLMLENKIYNIA | NATKTME | QQYFRLPFV gave 0.60, 0.26, 0.11, 0.30, 0.43, 0.40 (controls 0 of 18).